By UniProt entry, the sequences of proteins in these tests, tags left out. Residues count along the entry.
UniProt P43220, 24-463: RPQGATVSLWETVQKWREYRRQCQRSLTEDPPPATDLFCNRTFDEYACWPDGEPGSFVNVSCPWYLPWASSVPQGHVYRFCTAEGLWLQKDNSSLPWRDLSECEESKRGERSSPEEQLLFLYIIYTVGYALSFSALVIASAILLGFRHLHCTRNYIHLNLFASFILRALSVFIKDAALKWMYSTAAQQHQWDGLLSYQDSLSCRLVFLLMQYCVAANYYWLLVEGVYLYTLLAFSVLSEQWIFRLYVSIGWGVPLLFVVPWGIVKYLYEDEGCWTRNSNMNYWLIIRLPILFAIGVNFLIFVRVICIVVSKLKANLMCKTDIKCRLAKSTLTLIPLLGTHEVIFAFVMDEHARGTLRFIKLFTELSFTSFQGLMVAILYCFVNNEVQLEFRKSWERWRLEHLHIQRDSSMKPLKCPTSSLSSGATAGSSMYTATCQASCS

In patent publication US20190175744A1, “INSULIN-INCRETIN CONJUGATES” (Merck Sharp & Dohme Corp., priority 2016, published 2019):

Biological target: human GLP1R (Homo sapiens, UniProt P43220)
Assay: cAMP activity assay, cells expressing human GLP1R
Assay type: cell-based
Settings: Table 5, incretin peptides, read-out: hGLP1R EC50

HUQGTFTSD-K(γEγEC16)SKYLDURAAQDFV-Nle(ϵN3)-WLLDTKγE-NH2 [PEP22]
EC50: 0.07 nM

HsQGTFTSD-K(γEγEC16)SSYLDURAAQDFV-Nle(ϵN3)-WLLNTKγE-NH2 [PEP9]
EC50: 0.15 nM
